Test results taken from US10729759B2, “Fluorocarbon-linked peptide formulation” (priority 2010, dated 2020).

What was measured:
[1] = assay type: physicochemical; settings: for Further dilution in Mannitol:Water Solubility: FCP 0.167 mM, 1.33% (w/v) mannitol, cloudiness / particulates; for Dispersion in Water Solubility: FCP 1.333 mM in water, vortexed and sonicated, cloudiness (Clear/Cloudy−/Cloudy/Cloudy+) / particulates
Method: The solubility of each FCP in water was assessed. Each FCP was dispersed in 300 μl of water to a final concentration of 1.333 mM and vortexed and sonicated. The typical dispersion conditions were four sequences of three minutes bath sonication interspersed by 30 seconds vortexing. After inspection, the resulting solution was diluted with a mannitol solution (a candidate lyophilisation medium, final concentration of peptide 0.167 mM, 1.33% (w/v) mannitol). Solubility was assessed by visual observation of the cloudiness of the resulting dispersion (scaled: Clear/Cloudy−/Cloudy/Cloudy+) and presence of particulates. […]

[2] = assay type: physicochemical; settings: 1.33% mannitol, 0.22 μm PVDF filter; for YIELD % of each FCP following sterile filtration, MIX 1: MIX 1 dispersed in water; for YIELD % of each FCP following sterile filtration, MIX 2: MIX 2 dispersed in water
[3] = assay type: physicochemical
Method: In order to limit the concentration of acetic acid downstream in the formulation process and in the final product, the lowest concentration of acetic acid in water to achieve efficient dispersion and maintain visible solubility was determined for each fluorocarbon-linked peptide. When using mannitol as a cryprotectant, it is important to minimize the acetic acid concentration at the lyophilisation stage in order to achieve a stable and amorphous freeze-dried product. The minimum acetic acid concentration to achieve acceptable dispersibility and solubility of the individual fluorocarbon-linked peptides was determined. The final concentration of fluorocarbon-linked peptide after initial acetic acid dispersion was 2 μmol/ml and after dilution with mannitol, 0.250 μmol/ml.

Row | SMILES | Further dilution in Mannitol:Water Solubility [1] | Dispersion in Water Solubility [1] | YIELD % of each FCP following sterile filtration, MIX 1 [2] | YIELD % of each FCP following sterile filtration, MIX 2 [2] | Percentage acetic acid (% v/v): minimum concentration for acceptable dispersibility and solubility ([3]; FCP 2 μmol/ml after acetic acid dispersion) | Visual appearance after dispersion ([3]; at the listed acetic acid concentration, FCP 2 μmol/ml)
1 | CC[C@H](C)[C@H](NC(=O)CNC(=O)[C@H](CCCCN)NC(=O)[C@@H](NC(=O)[C@H](CC(C)C)NC(=O)[C@@H]1CCCN1C(=O)[C@H](CO)NC(=O)[C@H](CC(C)C)NC(=O)[C@@H](NC(=O)[C@@H]1CCCN1C(=O)[C@H](CCCNC(=N)N)NC(=O)[C@@H](NC(=O)[C@H](CCCCN)NC(=O)[C@H](CC(C)C)NC(=O)[C@H](Cc1c[nH]c2ccccc12)NC(=O)[C@H](CCC(=O)O)NC(=O)[C@H](CCSC)NC(=O)[C@H](CC(C)C)NC(=O)[C@H](C)NC(=O)[C@H](CCC(=O)O)NC(=O)[C@H](CC(C)C)NC(=O)[C@H](CC(=O)O)NC(=O)[C@@H](N)CCCCNC(=O)CCC(F)(F)C(F)(F)C(F)(F)C(F)(F)C(F)(F)C(F)(F)C(F)(F)C(F)(F)F)[C@@H](C)O)[C@@H](C)CC)[C@@H](C)O)C(=O)N[C@@H](CC(C)C)C(=O)NCC(=O)N[C@@H](Cc1ccccc1)C(=O)N[C@H](C(=O)N[C@@H](Cc1ccccc1)C(=O)N[C@H](C(=O)N[C@@H](CC(C)C)C(=O)N[C@H](C(=O)N[C@H](C(=O)N1CCC[C@H]1C(=O)N[C@@H](CO)C(=O)N[C@@H](CCC(=O)O)C(=O)N[C@@H](CCCNC(=N)N)C(N)=O)C(C)C)[C@@H](C)O)[C@@H](C)O)C(C)C [FCP5] | insoluble; also recorded: Cloudy−/Particulates | Cloudy/Particulates | 93.8% | 35.6% | 10 % v/v | Clear
2 | CC[C@H](C)[C@H](NC(=O)[C@H](Cc1ccc(O)cc1)NC(=O)[C@H](CO)NC(=O)[C@H](CCCCN)NC(=O)[C@H](CCCCN)NC(=O)[C@H](CCCCN)NC(=O)[C@@H](N)CCCCNC(=O)CCC(F)(F)C(F)(F)C(F)(F)C(F)(F)C(F)(F)C(F)(F)C(F)(F)C(F)(F)F)C(=O)N[C@@H](CC(N)=O)C(=O)N[C@@H](CCCCN)C(=O)N[C@H](C(=O)NCC(=O)N[C@H](C(=O)N[C@@H](Cc1ccccc1)C(=O)N[C@@H](CCC(=O)O)C(=O)N[C@@H](Cc1ccccc1)C(=O)N[C@H](C(=O)N[C@@H](CO)C(=O)N[C@@H](Cc1ccccc1)C(=O)N[C@@H](Cc1ccccc1)C(=O)N[C@@H](Cc1ccc(O)cc1)C(=O)N[C@@H](CCCNC(=N)N)C(=O)N[C@@H](Cc1ccc(O)cc1)C(=O)NCC(=O)N[C@@H](Cc1ccccc1)C(=O)N[C@H](C(=O)N[C@@H](C)C(=O)N[C@@H](CC(N)=O)C(=O)N[C@@H](Cc1ccccc1)C(=O)N[C@@H](CO)C(=O)N[C@@H](CCSC)C(=O)N[C@@H](CCC(=O)O)C(=O)N[C@@H](CC(C)C)C(=O)N1CCC[C@H]1C(=O)N[C@@H](CO)C(=O)N[C@@H](Cc1ccccc1)C(=O)NCC(N)=O)C(C)C)[C@@H](C)O)[C@@H](C)O)[C@@H](C)O [FCP7] | insoluble; also recorded: Cloudy+/No Particulates | Cloudy+/No Particulates | 31.7% | 63.2% | – | –

Entries after “also recorded” stand apart in the source; their conditions may differ.
